Binding of CDR-mutated scFvs to a peptide of the spike HR2 region

Source: Engelhart et al. 2022 (doi:10.1038/s41597-022-01779-4), MIT Lincoln Laboratory and A-Alpha Bio; data file from the FLAb repository.

All variants were tested on one target, the spike HR2 peptide PDVDLGDISGINAS (SARS-CoV-2).

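The starting antibody came from a phage panning campaign against this peptide. In library AAYL51, one, two or three CDR residues were substituted; doubles and triples were drawn at random. The assay is AlphaSeq: two haploid yeast populations carry antibody and antigen on their surface. Pairs that bind mate more often; barcode pairs of the diploids are counted by sequencing. Scores were corrected for input abundance and mapped to Kd with protein pairs of known affinity run in the same pool. The assay was run in three technical replicates.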

Parent scFv Ab-91: VL joined to VH by a (GGGGS)3 linker. Changes lie in the heavy chain CDRs alone.
VL: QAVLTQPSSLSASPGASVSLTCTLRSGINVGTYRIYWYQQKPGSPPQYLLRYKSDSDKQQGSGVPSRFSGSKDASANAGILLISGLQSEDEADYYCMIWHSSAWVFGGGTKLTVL
VH: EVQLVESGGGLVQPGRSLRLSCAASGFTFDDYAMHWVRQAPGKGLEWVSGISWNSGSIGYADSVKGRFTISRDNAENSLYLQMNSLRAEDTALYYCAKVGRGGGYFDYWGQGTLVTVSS

The parent's heavy chain CDRs are GFTFDDYAMH, GISWNSGSIGYADSVK, VGRGGGYFDY; each variant's own CDRs replace them letter for letter.
Affinities are written as log10 Kd with Kd in nM; a lower number is a better binder.
Averages over replicates are reported, and they cover detected replicates only.
A pair that was not seen in that replicate is written "ND"; this usually means weak binding, but a binder can also be missed.
As a blank, each scFv also met three strains without target: over library AAYL51, 21% of these pairings were detected, typically at 4.54 and seldom below 3.26. The control count says in how many pairings with the empty strains this scFv gave a signal, with their mean in brackets.

| # | CDR-H1 | CDR-H2 | CDR-H3 | log10 Kd (nM) by replicate | log10 Kd (nM), mean | empty controls |
|---|---|---|---|---|---|---|
| 1 | GFTFDDYAMH | EISWFSGSIGYADSVK | VGYGGGYFDY | 3.01 ND ND | 3.01 | 1/9 (3.16) |
| 2 | GFTFDDYAMH | GKSWNSGSIGRTDSVK | VGRGGGYFDY | 4.27 ND ND | 4.27 | 3/9 (3.88) |
| 3 | GFTFDDYAMH | GISWNSDSIGEADSVY | VGRGGGYFDY | 4.85 ND ND | 4.85 | 0/9 |
| 4 | GFTFDDYAMH | GISWNHGSIGYADEVK | VGRGGGYFDY | 4.42 4.16 5.32 | 4.63 | 2/9 (4.93) |
| 5 | GFTFDDYAMH | GISWISGSITYADSCK | VGRGGGYFDY | 3.91 4.44 ND | 4.18 | 1/9 (4.07) |
| 6 | GETFDDYAMH | GISWNSGSISYAGSVK | VGRGGGYFDY | ND ND ND | ND | 1/9 (4.43) |
| 7 | GFTFDDFAMH | MISWNSGSIGYAVSVK | VGRGGGYFDY | ND ND ND | ND | 0/9 |
| 8 | GFTFDDYAMH | HISWNSGSIGYADEVK | VGRGGGKFDY | ND ND ND | ND | 0/9 |
| 9 | KFTFDDYAMH | GISWNSGSIGMADSVK | VGRRGGYFDY | ND 5.68 ND | 5.68 | 2/9 (4.71) |
| 10 | GFTPDEYAMH | SISWNSGSIGYADSVK | VGRGGGYFDY | ND ND ND | ND | 2/9 (4.69) |
| 11 | GFTFDLYNMH | GISWNSGSIGSADSVK | VGRGGGYFDY | 4.66 ND ND | 4.66 | 5/9 (3.65) |
| 12 | GFTFDDYAMH | LISWNSGSIGYAKSDK | VGRGGGYFDY | 3.98 4.22 ND | 4.10 | 1/9 (5.56) |
| 13 | GFTFDDYRMH | GISWNSTSIGYADSVK | VGRGQGYFDY | ND ND ND | ND | 2/9 (4.22) |
| 14 | GFTFDDYAMH | GISWNSGSRGYADSVK | VGVGGGYFDD | 1.17 1.19 0.80 | 1.05 | 5/9 (4.20) |
| 15 | GFRFDDYAMH | GISWNSGSIGSADSVK | VGRGGGYFGY | 3.40 2.97 3.07 | 3.15 | 2/9 (4.56) |
| 16 | GFTFDIYAMH | GISWNSGSIGYADSVK | VGRGGGYFDY | 2.15 1.84 0.99 | 1.66 | 0/9 |
| 17 | GFTNDDYRMH | GIEWNSGSIGYADSVK | VGRGGGYFDY | ND ND ND | ND | 0/9 |
| 18 | GFHFDNFAMH | GISWNSGSIGYADSVK | VGRGGGYFDY | 5.60 ND ND | 5.60 | 5/9 (4.60) |
| 19 | GFTFDDYAMH | GISWNSGSIGYADSVK | FGRGGYYFDY | ND 2.94 4.33 | 3.63 | 2/9 (4.00) |
| 20 | GFTFDDYAPH | IISWNSGSIGYADSVK | VGRGGGYFIY | ND ND ND | ND | 0/9 |
| 21 | GFTFDDYAMH | GISHNSGSIGNADSVK | VGRAGGYFDY | ND ND ND | ND | 2/9 (3.82) |
| 22 | GFTFDDYAMG | GISWNSGSWGYADSVK | VGVGGGYFDY | 3.97 ND ND | 3.97 | 1/9 (4.63) |
| 23 | GFYFIDYAMH | GISFNSGSIGYADSVK | VGRGGGYFDY | 3.50 ND 2.92 | 3.21 | 1/9 (3.68) |
| 24 | GFTFDDYAMH | GIQWNSGSNGYAASVK | VGRGGGYFDY | 4.38 ND ND | 4.38 | 4/9 (4.31) |
| 25 | GFTYYDYAMH | GISWNSGSIGYADSVK | VGRGGGYFDG | ND ND ND | ND | 1/9 (4.61) |
| 26 | EFTFDDDAMH | AISWNSGSIGYADSVK | VGRGGGYFDY | ND ND ND | ND | 4/9 (3.92) |
| 27 | GFTFMDYAMH | GISWNSGSIGYADSVK | VGRNQGYFDY | 3.85 5.19 4.99 | 4.68 | 6/9 (5.07) |
| 28 | GFTMDDYAMH | QISWNSGSIGYADSCK | VGRGGGYFDY | ND ND ND | ND | 1/9 (5.49) |
| 29 | GFTFDDYAMH | VASWNSISIGYADSVK | VGRGGGYFDY | ND 4.78 ND | 4.78 | 0/9 |
| 30 | GFTFDDYAMY | GISWNSGSIGYADSVK | VGRGGGIFDY | ND ND ND | ND | 1/9 (4.53) |
| 31 | GFTFDDYAMH | GISVNSGSIGYADSVK | VNRDGGYFDY | ND ND ND | ND | 3/9 (4.21) |
| 32 | GFTYDDYAFH | GISWNSGSIGYADSVK | VGRGGGYFSY | ND 3.90 ND | 3.90 | 6/9 (4.45) |
| 33 | PFTFDDYAMH | KISWNSGSIGYADSVK | VGRGGGYFDY | ND ND ND | ND | 0/9 |

Again, the first 3 entries without any signal:

CDR-H1	CDR-H2	CDR-H3	log10 Kd (nM) by replicate	log10 Kd (nM), mean	empty controls
GETFDDYAMH	GISWNSGSISYAGSVK	VGRGGGYFDY	ND ND ND	ND	1/9 (4.43)
GFTFDDFAMH	MISWNSGSIGYAVSVK	VGRGGGYFDY	ND ND ND	ND	0/9
GFTFDDYAMH	HISWNSGSIGYADEVK	VGRGGGKFDY	ND ND ND	ND	0/9

Parent in this assay: reference entry 1.86, copy in this library 0.88.